Amino acid sequences for entries named in this document (tags omitted).
UniProt O43613, whole entry: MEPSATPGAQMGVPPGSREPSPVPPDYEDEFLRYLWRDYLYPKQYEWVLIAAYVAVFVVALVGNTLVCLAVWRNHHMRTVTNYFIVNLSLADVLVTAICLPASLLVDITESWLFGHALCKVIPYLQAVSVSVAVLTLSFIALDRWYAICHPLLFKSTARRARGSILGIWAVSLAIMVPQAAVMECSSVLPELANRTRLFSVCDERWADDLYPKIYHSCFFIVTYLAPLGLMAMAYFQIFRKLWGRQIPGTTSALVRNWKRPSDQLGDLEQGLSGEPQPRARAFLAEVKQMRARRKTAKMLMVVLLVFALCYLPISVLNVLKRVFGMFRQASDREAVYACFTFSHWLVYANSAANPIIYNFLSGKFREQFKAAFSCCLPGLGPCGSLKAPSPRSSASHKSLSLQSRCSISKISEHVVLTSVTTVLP
UniProt O43614, whole entry: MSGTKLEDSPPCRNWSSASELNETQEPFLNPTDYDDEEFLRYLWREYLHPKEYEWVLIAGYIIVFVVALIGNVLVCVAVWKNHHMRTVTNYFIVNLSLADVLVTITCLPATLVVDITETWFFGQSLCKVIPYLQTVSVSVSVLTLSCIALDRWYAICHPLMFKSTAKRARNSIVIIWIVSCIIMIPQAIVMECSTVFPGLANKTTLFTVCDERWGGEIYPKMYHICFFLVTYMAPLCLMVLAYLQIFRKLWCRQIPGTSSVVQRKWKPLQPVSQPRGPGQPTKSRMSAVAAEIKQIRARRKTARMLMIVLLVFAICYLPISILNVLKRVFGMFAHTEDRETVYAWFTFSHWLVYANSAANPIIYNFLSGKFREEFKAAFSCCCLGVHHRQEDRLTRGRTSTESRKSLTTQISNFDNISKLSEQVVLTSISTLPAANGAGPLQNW

According to patent US9242970B2 (ACTELION PHARMACEUTICALS LTD., priority 2010, dated 2016):

Experiments:
human orexin-1 receptor = human orexin-1 receptor (Homo sapiens (Human), UniProt O43613); assay: In vitro assay: intracellular calcium measurements (FLIPR), antagonistic activity; assay type: cell-based; conditions: CHO cells, 3 nM orexin-A, compound incubation 120 min; marked values are geometric means of n = 2-6; read-out: IC50 OX1
Procedure: (§1) In Vitro Assay: Intracellular Calcium Measurements:
(§2) Chinese hamster ovary (CHO) cells expressing the human orexin-1 receptor and the human orexin-2 receptor, respectively, are grown in culture medium (Ham F-12 with L-Glutamine) containing 300 µg/ml G418, 100 U/ml penicillin, 100 µg/ml streptomycin and 10% heat inactivated fetal calf serum (FCS). The cells are seeded at 20,000 cells/well into 384-well black clear bottom sterile plates (Greiner). The seeded plates are incubated overnight at 37° C. in 5% CO2.
(§3) Fluorescence is measured for each well at 1 second intervals, and the height of each fluorescence peak is compared to the height of the fluorescence peak induced by 3 nM orexin-A with vehicle in place of antagonist. […] Optimized conditions were achieved by adjustment of pipetting speed and cell splitting regime. The calculated IC50 values may fluctuate depending on the daily cellular assay performance. Fluctuations of this kind are known to those skilled in the art.

human orexin-2 receptor = human orexin-2 receptor (Homo sapiens (Human), UniProt O43614); assay: as above; assay type: cell-based; conditions: CHO cells, 3 nM orexin-A, compound incubation 120 min; marked values are geometric means of n = 2-6; read-out: IC50 OX2
Procedure: as §1, §2, §3

SMILES	IC50 (human orexin-1 receptor)	IC50 (human orexin-2 receptor)
COc1c(F)ccc(F)c1[C@@H]1C[C@H](F)C(=O)N1Cc1ccc(OC(F)(F)F)cc1 (racemic) [Example 321, rac-(3S*,5S*)-5-(3,6-difluoro-2-methoxyphenyl)-3-fluoro-1-(4-(trifluoromethoxy)benzyl)pyrrolidin-2-one]	1430 nM	
COc1cc(F)ccc1[C@@H]1C[C@@H](Cl)C(=O)N1Cc1ccc(OC(F)(F)F)cc1 (racemic) [Example 323, rac-(3R*,5S*)-3-chloro-5-(4-fluoro-2-methoxyphenyl)-1-(4-(trifluoromethoxy)benzyl)pyrrolidin-2-one]	986 nM	
CCOc1ccc(F)c(F)c1[C@@H]1C[C@@H](O)C(=O)N1Cc1ccc(OC(F)(F)F)cc1 (racemic) [Example 338, rac-(3R*,5S*)-5-(6-ethoxy-2,3-difluorophenyl)-3-hydroxy-1-(4-(trifluoromethoxy)benzyl)pyrrolidin-2-one]	2470 nM	
CC(C)Oc1cccc(F)c1[C@@H]1C[C@@H](O)C(=O)N1Cc1ccc(OC(F)(F)F)cc1 (racemic) [Example 394, rac-(3R*,5S*)-5-(2-fluoro-6-isopropoxyphenyl)-3-hydroxy-1-(4-(trifluoromethoxy)benzyl)pyrrolidin-2-one]	2550 nM	
COc1cccc(F)c1[C@@H]1C[C@@H](O)C(=O)N1Cc1ccc2oc3ccccc3c2c1 (racemic) [Example 412, rac-(3R*,5S*)-1-(dibenzo[b,d]furan-2-ylmethyl)-5-(2-fluoro-6-methoxyphenyl)-3-hydroxypyrrolidin-2-one]	288 nM	4 nM
CCOc1cccc(Cl)c1[C@@H]1C[C@H](Cl)C(=O)N1Cc1ccc(OC(F)(F)F)cc1 (racemic) [Example 437, rac-(3S*,5S*)-3-chloro-5-(2-chloro-6-ethoxyphenyl)-1-(4-(trifluoromethoxy)benzyl)pyrrolidin-2-one]	782 nM	46 nM
COc1cccc(F)c1[C@@H]1C[C@H](Cl)C(=O)N1Cc1cccc(OC(F)(F)F)c1 (racemic) [Example 460, rac-(3S*,5S*)-3-chloro-5-(2-fluoro-6-methoxyphenyl)-1-(3-(trifluoromethoxy)benzyl)pyrrolidin-2-one]	798 nM	22 nM
